Binding of CDR-mutated scFvs to a peptide of the spike HR2 region

Reference: Li et al. 2023, doi:10.1038/s41467-023-39022-2. File: FLAb, binding data.

Binding partner: SARS-CoV-2 spike HR2 peptide, sequence PDVDLGDISGINAS.

Parent: Ab-14, a human scFv built as VH, three GGGGS repeats, VL. Only the CDRs of the heavy chain vary.
VH: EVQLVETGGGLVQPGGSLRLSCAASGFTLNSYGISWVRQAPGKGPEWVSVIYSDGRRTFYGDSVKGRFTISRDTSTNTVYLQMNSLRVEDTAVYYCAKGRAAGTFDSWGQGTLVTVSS
VL: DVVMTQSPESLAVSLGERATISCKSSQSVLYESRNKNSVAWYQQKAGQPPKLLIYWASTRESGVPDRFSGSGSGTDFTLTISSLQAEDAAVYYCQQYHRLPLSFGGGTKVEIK

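The starting antibody came from a phage panning campaign against this peptide. The variants were designed computationally from a first round of random CDR variants and then made and measured. Group labels follow the data file (Ctrl: baseline library sampled from a position-specific scoring matrix, with some repeated check sequences; GPLM: also part of the Gaussian process libraries; HC: hill climbing; Gen: genetic algorithm; a sequence that several methods proposed may carry one label only). Affinity was read by AlphaSeq, a pooled yeast mating assay with surface-displayed partners. Binding brings cells together so that they mate, and sequencing counts the barcode pairs among the diploids. The ratio of observed to expected reads was calibrated, replicate by replicate, on BCL2-family standards whose Kd was known from biolayer interferometry. Each pool was mated in six replicate cultures.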

Each variant is given by its three heavy chain CDRs, as the data file delimits them; those of the parent are GFTLNSYGIS, VIYSDGRRTFYGDSVK, GRAAGTFDS. The read-out is the apparent dissociation constant on a log10 scale (nM): the lower, the stronger. Where no diploid with the target was found in that replicate, the entry reads "n.d.": below detection, most likely a poor binder, though not proof of it.

{"CDR-H1": "GFTLNSYGIS", "CDR-H2": "VIYRDGRRTFYGDSVK", "CDR-H3": "GRAAGTFDS", "group": "Ctrl", "log10 Kd (nM) by replicate": "n.d. / n.d. / n.d. / n.d. / n.d. / n.d.", "control signals": "0 of 18"}
{"CDR-H1": "GFTLNSYGIS", "CDR-H2": "VIYSDGMRLFYGDSVK", "CDR-H3": "GRAAGTFDQ", "group": "Ctrl", "log10 Kd (nM) by replicate": "n.d. / n.d. / n.d. / n.d. / n.d. / n.d.", "control signals": "0 of 18"}
{"CDR-H1": "GFTLNQYGIS", "CDR-H2": "VIYSDGRRTFYIDSVK", "CDR-H3": "GRAAGTFDS", "group": "Ctrl", "log10 Kd (nM) by replicate": "n.d. / 1.40 / 1.47 / 1.68 / 1.36 / 1.25", "control signals": "1 of 18 (1.36)"}
{"CDR-H1": "GFTLNSYGIS", "CDR-H2": "VIYSDGRRTFYGWSVK", "CDR-H3": "GRAAGTFDS", "group": "Ctrl", "log10 Kd (nM) by replicate": "n.d. / n.d. / n.d. / n.d. / n.d. / n.d.", "control signals": "0 of 18"}
{"CDR-H1": "GFTLNSYGIS", "CDR-H2": "VIYSDGRRTFYGDSVK", "CDR-H3": "GRATGAFDS", "group": "Ctrl", "log10 Kd (nM) by replicate": "n.d. / n.d. / n.d. / n.d. / n.d. / n.d.", "control signals": "1 of 18 (2.21)"}
{"CDR-H1": "GFTLNSYGMS", "CDR-H2": "VIYSDGRRTWYGQSVK", "CDR-H3": "GRAAGTFDS", "group": "Ctrl", "log10 Kd (nM) by replicate": "n.d. / n.d. / n.d. / n.d. / n.d. / 4.53", "control signals": "2 of 18 (2.11)"}
{"CDR-H1": "GFTNNEYGIS", "CDR-H2": "VIYSDGRRTAYIDSVK", "CDR-H3": "GRAAGTFDS", "group": "Ctrl", "log10 Kd (nM) by replicate": "1.95 / 2.07 / 1.04 / 2.40 / 1.42 / 1.72", "control signals": "0 of 18"}
{"CDR-H1": "GHTLNSYGIS", "CDR-H2": "VIYADGRRTFYGDSVK", "CDR-H3": "GYAAGNFDS", "group": "Ctrl", "log10 Kd (nM) by replicate": "n.d. / n.d. / n.d. / n.d. / n.d. / n.d.", "control signals": "0 of 18"}
{"CDR-H1": "GFTLMMYGIS", "CDR-H2": "VIYSDGRRTFYGDSVK", "CDR-H3": "GRAAGTFDS", "group": "Ctrl", "log10 Kd (nM) by replicate": "n.d. / n.d. / n.d. / n.d. / n.d. / n.d.", "control signals": "0 of 18"}
{"CDR-H1": "GETLNDYGIS", "CDR-H2": "VIYADGRRTFYLDSVK", "CDR-H3": "GRAAGSFDS", "group": "Ctrl", "log10 Kd (nM) by replicate": "1.82 / 0.71 / n.d. / 0.21 / 1.62 / 0.25", "control signals": "0 of 18"}
{"CDR-H1": "GFTLNEYGIS", "CDR-H2": "VIYSDGERTFYGDSVK", "CDR-H3": "GRAAGHFDS", "group": "Ctrl", "log10 Kd (nM) by replicate": "n.d. / n.d. / n.d. / n.d. / 2.82 / n.d.", "control signals": "1 of 18 (2.54)"}
{"CDR-H1": "GFTLNSYGIN", "CDR-H2": "VIYSDGRRTFIIDSVK", "CDR-H3": "GRAAGRFDS", "group": "Ctrl", "log10 Kd (nM) by replicate": "n.d. / n.d. / n.d. / n.d. / n.d. / n.d.", "control signals": "0 of 18"}
{"CDR-H1": "GFSLNSYGIS", "CDR-H2": "VIYSDGRRTFYQDSVK", "CDR-H3": "GSLAGTFIL", "group": "Ctrl", "log10 Kd (nM) by replicate": "n.d. / n.d. / n.d. / n.d. / n.d. / n.d.", "control signals": "0 of 18"}
{"CDR-H1": "GFTLNSYGIS", "CDR-H2": "VIYSDGRRTFYKDSVA", "CDR-H3": "GRAAGTFDS", "group": "Ctrl", "log10 Kd (nM) by replicate": "n.d. / n.d. / n.d. / n.d. / n.d. / 1.70", "control signals": "0 of 18"}
{"CDR-H1": "GTTLNSYGIS", "CDR-H2": "VIYSDGRRTFYGDSVK", "CDR-H3": "GRAAGTFDL", "group": "Ctrl", "log10 Kd (nM) by replicate": "n.d. / n.d. / n.d. / n.d. / n.d. / n.d.", "control signals": "0 of 18"}
{"CDR-H1": "GFDLNSYGIS", "CDR-H2": "VIYSDGRKTFYGDSVK", "CDR-H3": "DRAAGTFSS", "group": "Ctrl", "log10 Kd (nM) by replicate": "n.d. / n.d. / n.d. / n.d. / n.d. / n.d.", "control signals": "1 of 18 (3.10)"}
{"CDR-H1": "GFTLNEYGIS", "CDR-H2": "VIYSDGRRTFYGDSVK", "CDR-H3": "GRAAGTGDS", "group": "Ctrl", "log10 Kd (nM) by replicate": "n.d. / n.d. / n.d. / n.d. / n.d. / n.d.", "control signals": "0 of 18"}
{"CDR-H1": "GFNLNSYGIS", "CDR-H2": "VIYSDGRRTFYGDSVK", "CDR-H3": "GRAASTFDS", "group": "Ctrl", "log10 Kd (nM) by replicate": "n.d. / n.d. / n.d. / n.d. / n.d. / n.d.", "control signals": "0 of 18"}
{"CDR-H1": "GFTLNEYGIS", "CDR-H2": "VIYSDGRRTFYGDSVK", "CDR-H3": "GRNAGTFDS", "group": "Ctrl+GPLM_Gen", "log10 Kd (nM) by replicate": "-0.01 / -0.17 / -0.06 / -0.15 / 0.02 / 0.11; 0.22 / 0.03 / -0.07 / 0.03 / 0.39 / 0.07", "control signals": "0 of 36"}
{"CDR-H1": "GFTLNSYGIS", "CDR-H2": "VIYSDGRRTFYEDAVK", "CDR-H3": "GRAAGTFDS", "group": "Ctrl", "log10 Kd (nM) by replicate": "n.d. / n.d. / n.d. / n.d. / n.d. / n.d.", "control signals": "0 of 18"}
{"CDR-H1": "GFTLMEYGIS", "CDR-H2": "VIYSDGRRTAYGDSVK", "CDR-H3": "GRAAGTFDS", "group": "Ctrl", "log10 Kd (nM) by replicate": "0.36 / 0.89 / 1.26 / 0.42 / 0.26 / 0.57", "control signals": "0 of 18"}
{"CDR-H1": "GFTLNSYGIS", "CDR-H2": "VIYPDGRRTFYGDSVK", "CDR-H3": "GRLAGTFDS", "group": "Ctrl", "log10 Kd (nM) by replicate": "2.01 / 1.62 / 1.61 / 1.78 / 1.61 / 3.72", "control signals": "0 of 18"}
{"CDR-H1": "GFTLNSYGIS", "CDR-H2": "VIYSDGRVTFYGDSVK", "CDR-H3": "GKLAGTFDS", "group": "Ctrl", "log10 Kd (nM) by replicate": "n.d. / n.d. / n.d. / n.d. / n.d. / n.d.", "control signals": "1 of 18 (1.25)"}
{"CDR-H1": "GFSLNSYGIS", "CDR-H2": "VIYSDGRRTFYGDSVK", "CDR-H3": "GEIAGTFDS", "group": "Ctrl", "log10 Kd (nM) by replicate": "0.47 / 0.25 / 0.30 / 0.00 / 0.35 / 0.49", "control signals": "1 of 18 (2.02)"}
{"CDR-H1": "GFTLNSYGSS", "CDR-H2": "VIYSDGRRTSYNDSYK", "CDR-H3": "GRRAGTFDS", "group": "Ctrl", "log10 Kd (nM) by replicate": "n.d. / n.d. / n.d. / n.d. / n.d. / n.d.", "control signals": "0 of 18"}
{"CDR-H1": "GFTLNQYGIS", "CDR-H2": "VIYSDGRRTFYGDSVK", "CDR-H3": "VRAAGTFDS", "group": "Ctrl", "log10 Kd (nM) by replicate": "n.d. / 1.87 / n.d. / n.d. / n.d. / n.d.", "control signals": "1 of 18 (3.01)"}
{"CDR-H1": "GFTLDSYGIS", "CDR-H2": "VIYSDGRRTFYGDSVK", "CDR-H3": "GRAAGTFDA", "group": "Ctrl+GPLM_HC", "log10 Kd (nM) by replicate": "1.64 / 1.32 / n.d. / n.d. / 2.00 / 1.44; 2.01 / 0.75 / 0.64 / 1.13 / 1.00 / 1.35", "control signals": "0 of 36"}

3 of these entries, quoted again:

{"CDR-H1": "GFTLMMYGIS", "CDR-H2": "VIYSDGRRTFYGDSVK", "CDR-H3": "GRAAGTFDS", "group": "Ctrl", "log10 Kd (nM) by replicate": "n.d. / n.d. / n.d. / n.d. / n.d. / n.d.", "control signals": "0 of 18"}
{"CDR-H1": "GETLNDYGIS", "CDR-H2": "VIYADGRRTFYLDSVK", "CDR-H3": "GRAAGSFDS", "group": "Ctrl", "log10 Kd (nM) by replicate": "1.82 / 0.71 / n.d. / 0.21 / 1.62 / 0.25", "control signals": "0 of 18"}
{"CDR-H1": "GFTLNSYGIS", "CDR-H2": "VIYPDGRRTFYGDSVK", "CDR-H3": "GRLAGTFDS", "group": "Ctrl", "log10 Kd (nM) by replicate": "2.01 / 1.62 / 1.61 / 1.78 / 1.61 / 3.72", "control signals": "0 of 18"}

Some sequences occur more than once in the pool; their replicates are listed entry by entry, parted by semicolons. Values of this round are not directly comparable with the first-round values of the same sequences. Background: pairings of all heavy chain designs with three empty control strains gave a value in 1% of cases (median 2.08, 5th percentile 0.84). Values in that range, when seen in few replicates, are hard to tell from nonspecific mating. For each scFv, signals with the empty controls are counted beside the result, with their mean in brackets. The authors' rule: three or more of the six replicates give a measured affinity, fewer mean a poor binder. Of ten entries with the parent sequence, four were seen in most replicates (averages 0.34 to 2.37), three in one and three in none, so single entries are noisy.